## Antibody variant affinities, Ab-14 light chain, assay B

Data: MIT Lincoln Laboratory AlphaSeq set, Li et al. 2023, doi:10.1038/s41467-023-39022-2, as distributed in FLAb.

Target: peptide PDVDLGDISGINAS, taken from heptad repeat 2 (HR2) of SARS-CoV-2 spike.

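The parent was found by panning a naive human phage display library on the peptide. Designed CDR sequences, proposed from the first random library and measured here. Group labels follow the data file (Ctrl: baseline library sampled from a position-specific scoring matrix, with some repeated check sequences; En: ensemble of fine-tuned language models; GP: Gaussian process model; HC: hill climbing; Gen: genetic algorithm; Gibbs: Gibbs sampling; a sequence that several methods proposed may carry one label only). Affinity was read by AlphaSeq, a pooled yeast mating assay with surface-displayed partners. The frequency of each diploid, read from paired DNA barcodes, reflects how well the two displayed proteins bind. Read counts were normalised to the haploid input and turned into Kd by a linear fit to BCL2-family pairs of known affinity, for each replicate. Mating was done six times.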

Each scFv is VH, a (GGGGS)3 linker, VL, as in the parent Ab-14, and differs from it in the CDRs of the light chain only.
VH: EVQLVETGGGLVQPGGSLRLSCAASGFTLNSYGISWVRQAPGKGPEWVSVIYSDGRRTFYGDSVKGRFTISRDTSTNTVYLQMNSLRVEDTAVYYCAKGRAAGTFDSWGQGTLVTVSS
VL: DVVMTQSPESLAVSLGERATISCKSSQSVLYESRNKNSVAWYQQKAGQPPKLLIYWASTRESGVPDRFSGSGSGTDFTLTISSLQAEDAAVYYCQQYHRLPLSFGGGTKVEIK

Each variant is given by its three light chain CDRs, as the data file delimits them; those of the parent are KSSQSVLYESRNKNSVA, WASTRES, QQYHRLPLS.
This list holds designs with more than six substitutions.
The Kd shown is the geometric mean over detected replicates; a lower Kd is a better binder.
An entry "no signal" has no value in the source: the pair was not observed among the diploids in any replicate. This suggests poor binding but is not conclusive.

With MLNGPVEIEQHKWNSVA / SAEILAM / QQYFRLPFS [En_Gibbs] the result was 24 nM (6 of 6 replicates). For RLTNEFFKEKERKNSVA / HADQRCM / QQYFRLPLI [En_Gibbs], the assay gave 6.9 nM (6 of 6 replicates). Variant MMSQVWGSGQRHRNNVA / QTSTREP / QQYDRLPLI [En_Gen] showed 3.7 nM (6 of 6 replicates). Variant MVTQMAMSGMTNKRSVA / NAETRED / QQYHRLPLI [En_Gen] gave 19 nM (1 of 6 replicates). Variant KFSQSDYYEGRNKNSVA / HASIRIS / QQYHRLPLS [Ctrl] gave 8.3 nM (6 of 6 replicates). Variant QVTNISDPYGRNRNNIA / NTSERMH / QQYQMLPLA [En_Gibbs] gave 420 pM (6 of 6 replicates).

With MITAMLRGVGRDKNSVA / NAQTREQ / QHYHRLPLS [En_HC] the result was 600 nM (1 of 6 replicates). With SMGWAHENGDNKMNNIA / DTTHLAY / QQYSRLPIT [En_Gibbs] the result was 4.0 nM (6 of 6 replicates). Variant KLSQATRMESRNKASVA / ENSTRGS / QQYFRLPLS [En_HC] showed 1.4 nM (6 of 6 replicates). Variant KLSMLTEMEHKNRNSVA / ELVTRMA / QQYNRLPLS [En_Gen] gave 3.9 nM (6 of 6 replicates). For RLTNEFEKVSAHKNSIA / HTDQRCM / QQYFTLPLH [En_Gibbs], the assay gave 16 nM (6 of 6 replicates). Variant MISQLYNMGTFAINSVA / QASLRCN / QQYDRLPLM [En_Gen] showed no signal (0 of 6 replicates).

Variant HITMGMYVKGRHHSSIA / QAETRAE / QQYDRLPLI [En_Gen] showed 10 nM (6 of 6 replicates). For MITEGQLGENKNSSNIA / SQNQKTD / QQYQRLPLI [En_Gibbs], the assay gave 12 nM (6 of 6 replicates). For AFTNSIFYGQRDDNSIA / HADVLEK / QQYFRFPLA [En_Gibbs], the assay gave 35 nM (5 of 6 replicates). Variant HITQSVGMTIRNKNSVA / ENSTRED / QQYDRLPLS [En_HC] gave 5.8 nM (1 of 6 replicates). With KQEISVLQESRNQNSVA / SASTREV / QQYHRLPLS [GP_Gibbs] the result was 1.9 nM (6 of 6 replicates). Variant KLQQDVLYESRNKNSVA / QASTRMV / QAYHRLPLS [GP_Gibbs] gave 970 pM (6 of 6 replicates).

With MISQIYNMGSFAINSVA / QASLRNQ / QQYDRLPLM [En_Gen] the result was 11 nM (6 of 6 replicates). For QLGHYKHENMAKWQNIA / NMTIREK / QQYAHLPLA [En_Gibbs], the assay gave 130 nM (5 of 6 replicates). Variant TVSQVTGMLQHNTNSVA / DMNTRGS / QQYDRLPLS [En_HC] gave 1.8 nM (6 of 6 replicates). Variant IVTEAQNENSLYTNNIA / NGENTLA / QQYFRLPLQ [En_Gibbs] gave 3.2 nM (6 of 6 replicates). Variant IVSQLMLWGYHAKNSIA / EAETRLN / QQYERLPLF [En_Gen] showed no signal (0 of 6 replicates). Variant MLPESLPQQQTNVNAVA / GAQHTAV / QQYGRLPLT [En_Gibbs] showed 2.6 nM (6 of 6 replicates).

Variant QLGKNQSGDTLSQGAIA / HAAELVD / QQYFRLPLL [En_Gibbs] gave 5.4 nM (6 of 6 replicates). With KLQNFSQEDNKMWNNIA / DMTMKHT / QQYNRLPLE [En_Gibbs] the result was 2.3 nM (6 of 6 replicates). With KVSDLMAFLSRNRNSVA / DNSTRGS / QQYHRLPLS [En_HC] the result was 28 nM (6 of 6 replicates). Variant KVMYFNEQVSLKGSNVA / DNETRER / QQYFRLPLS [En_Gen] showed 760 pM (6 of 6 replicates). Variant KLSMFAHVETGVKNNVA / QMETREP / QQYDHLPLS [En_Gen] gave 2.5 nM (6 of 6 replicates). For KLGDYVHTESRNKNSIA / DMRTRES / QQYYRLPLS [En_HC], the assay gave 490 pM (6 of 6 replicates).

With KIDGQRSYQGGRERAIA / DANIRQR / QQYARLPLV [En_Gibbs] the result was 1.4 nM (6 of 6 replicates). For MMSQVTALGQRHRNNVA / QTSTREE / QQYDRLPLV [En_Gen], the assay gave 3.4 nM (6 of 6 replicates). With KQSQSVLYGERNGNSVA / NASQRLS / QQYHRLPLS [GP_Gibbs] the result was 36 nM (6 of 6 replicates). Variant KISQSVEMQQRNPNSVA / SASTRLS / QQYHRLPLS [GP_Gibbs] gave 1.7 nM (6 of 6 replicates). With KLSSVIGTEKVHGNNVA / EMETREN / QQYDRLPLS [En_Gen] the result was 21 nM (6 of 6 replicates). For KLSQITGHASVSKNNVA / EMATREN / QQYDRLPLS [En_Gen], the assay gave 11 nM (6 of 6 replicates).

Variant KLTHLTFVLDRQKASVA / DSERKAE / QQYNRLPLT [En_Gibbs] gave 2.9 nM (6 of 6 replicates). For KLVESVLYESRQSNAVA / NASYREE / QQYHRLPLS [GP_Gibbs], the assay gave 1.1 nM (6 of 6 replicates). Variant KLSQSWLYESRVKNNVA / DAHQRES / QMYHRLPLS [GP_Gibbs] gave 12 nM (6 of 6 replicates). Variant MIAQMLGWESNKINSVA / QANLRCE / QQYDRLPLE [En_Gen] showed 26 nM (6 of 6 replicates). Variant KLSQSDGYQARNKNSVA / HASQRED / QQYHRLPLS [GP_Gibbs] gave 350 pM (6 of 6 replicates). Variant KISQMSTIESITHNSVA / QTSTREN / QQYDRLPLS [En_HC] showed 5.4 nM (6 of 6 replicates).

For KLYQSNGYESRNDNNVA / NASLRES / QQYHRLPLS [GP_Gibbs], the assay gave 5.0 nM (6 of 6 replicates). With TISSVMNHMTRIDNNVA / NQDMREK / QQYDRLPLS [En_Gen] the result was 53 nM (6 of 6 replicates). Variant MIHEMMGLMSHKQSSIA / DNSTRED / QQYDRLPLS [En_Gen] showed 2.1 µM (2 of 6 replicates). Variant HMSMLTMMGMKQRNSVA / QMTMREN / QQYDRLPLV [En_Gen] showed 300 nM (1 of 6 replicates). With KVQQSGGMLSRNKNSVA / HASTRES / QQYHRLPLS [GP_Gibbs] the result was 5.2 nM (6 of 6 replicates). With KLMWSVEYESRNQNSVA / SASYRES / QQYHRLPLS [GP_Gibbs] the result was 7.3 nM (6 of 6 replicates).

Extract of 5 entries:

| CDR-L1 | CDR-L2 | CDR-L3 | group | Kd | replicates with signal |
|---|---|---|---|---|---|
| QVTNISDPYGRNRNNIA | NTSERMH | QQYQMLPLA | En_Gibbs | 420 pM | 6/6 |
| TISSVMNHMTRIDNNVA | NQDMREK | QQYDRLPLS | En_Gen | 53 nM | 6/6 |
| KLVESVLYESRQSNAVA | NASYREE | QQYHRLPLS | GP_Gibbs | 1.1 nM | 6/6 |
| KIDGQRSYQGGRERAIA | DANIRQR | QQYARLPLV | En_Gibbs | 1.4 nM | 6/6 |
| KISQMSTIESITHNSVA | QTSTREN | QQYDRLPLS | En_HC | 5.4 nM | 6/6 |

Three control strains display no target. For all light chain designs, 4% of the pairings with them gave a signal, with a median of 430 nM and one signal in twenty below 38 nM, so weak values seen in few replicates may be background.
The authors' rule: three or more of the six replicates give a measured affinity, fewer mean a poor binder.
The range of this assay differs from that of the first round, and the authors advise against merging the two.